# In US6599878B2, “Superoxygenating blood substitutes based on hemoglobin and dihydropyidine compositions” (priority 1992, dated 2003):
# Marks after values point to notes of the source that are not given here.
# Legend:
# [1] = Whole body oxygenation (Example I); assay type: in vivo, mongrel dogs; conditions: for CaO2: arterial oxygen content
# [2] = Systemic hemodynamics in anesthetized hemodiluted dogs (Example I); assay type: in vivo, mongrel dogs
# Method: Twenty-four conditioned, heartworm-free male mongrel dogs (20 to 30 kg) were anesthetized with sodium pentobarbital (30 mg/kg i.v.) followed by an i.v. maintenance dose of 4 mg/kg/hour. After intubation of the trachea with a cuffed endotracheal tube, the dog was mechanically ventilated (Siemens 900D Servoventilator) with 100% oxygen, tidal volumes of 10 to 12 ml/kg and respiration at a rate to achieve normocarbia. These settings were not changed throughout the study. Sodium bicarbonate was not administered. The body temperature of the dog was maintained at 39 C. with water-circulated heating pads.
# The dog was placed supine and a polyethylene catheter (PE 200) was inserted into the thoracic aorta via the left femoral artery for measurement of blood pressure. Two small-bore (PE 90) heparin-filled catheters of different lengths were placed in the abdominal aorta via the right femoral artery to collect reference blood samples containing radioactive microspheres for measurement of regional blood flow. Wide-bore (PE 240) catheters were placed in the right femoral vein and in the right carotid artery, for isovolemic exchange transfusion and for the administration of intravenous fluids and collection of arterial blood samples. A 5 french thermodilution catheter was advanced into the pulmonary artery via the right external jugular vein for measurement of cardiac output and right atrial pressure. A Foley catheter was inserted into the bladder for urine collection.
# Under fluoroscopy, a 5 french volume-conductance catheter (Mansfield Webster) was inserted via the left carotid artery across the aortic valve to the apex of the left ventricle to measure instantaneous volume.
# The animal was then placed on its right side and paralyzed with doxacurium (0.05 mg/kg) to perform a left thoracotomy in the fourth intercostal space. The exposed lung was retracted with gauze. Five cm H2O positive end-expiratory pressure was instituted to prevent atelectasis. A small incision was made in the pericardium near the left atrial appendage. The appendage was protracted and a PE 90 catheter, for microsphere injection, inserted into the ventricle via pressure verification and then pulled back into the atrium. A 3 french micromanometer-tipped pressure catheter (Millar) was then inserted via the appendage into the left ventricle for pressure recording. Both catheters were secured with a ligature around the appendage and distally taped to the animal. The exposed thoracic surface was covered with plastic film to prevent evaporation.
# Continuous measurements of heart rate (HR), pulsatile aortic pressure, mean aortic pressure (MAP), left ventricular peak pressure (LVPP), rate-of-change of LVPP (dP/dt), LV end diastolic pressure (LVEDP), LV volume, and right atrial pressure (RAP) were recorded on an analog thermal array recorder (Gould Model TA4000) and stored on a computerized data acquisition system (Halcom, Inc.) Cardiac output (CO) was measured in triplicate using a Spectramed Hemoprol computer. Systemic vascular resistance (SVR) was calculated from (MAP−RAP)÷CO. Systemic vascular hindrance (SVH) was calculated from SVR÷η, where η is the apparent viscosity of blood in centipoise (cp). At high flow rates (shear rates≈200 s^−1) assumed in the aorta, η is 4.0 cp for hematocrit (Hct) of 40 vol % and 2.1 cp for Hct of 20 vol %. Stroke volume was derived from CO÷HR. LV stroke work (LVSW) was calculated from (systolic AoP−LVEDP)×SV×0.0136.
# Left ventricular contractility was determined from end-systolic elastance (Ees) using pressure-volume relationships according to the methods of Kass et al., Circulation, 79, 167-178 (1989). Briefly, a catheter with 11 electrodes spaced 1 cm from its distal end was positioned in the ventricle so that its tip was at the apex (verified with fluoroscopy). A weak electrical field (20 KHz, 0.03 mA RMS current) was generated through the LV cavity from the electrodes at the apex and at the aortic valve. […]
# [3] = Properties of the hemoglobin product and colloid solutions; assay type: physicochemical; conditions: 8% albumin; 10% hemoglobin; Wescor 4400 Colloid Osmometer
# Excerpt: Canine hemoglobin (10 gm %) was purified as described in the parent application Ser. No. 07/849,610 filed on Mar. 11, 1992 and subsequently published by Rooney et al., Anesthesiology, 79, 60-72 (1993). A 10 gm % solution of hemoglobin is optimal for use as a resuscitative fluid or blood plasma expander because the 10 gm % concentration corresponds to the mass of red cells in blood (i.e., a hematocrit of 30 vol %) which is optimal for whole body oxygen delivery (calculated from arterial blood oxygen content x cardiac output). […]
# Results not presented in Table 1 are that methemoglobin levels were stable at ±0.4% for two weeks at 4° C., and that while hemoglobin dimers and monomers and free heme were not measured, in vitro studies have shown that for hemoglobin concentrations of above about 1 to 2 gm % there is no detectable dissociation of hemoglobin tetramers [see Fanelli et al., Adv. […]
# Blood pH, PCO2, PO2 and Na^+, K^+ and Ca^++ concentrations were measured with a Nova Stat Profile 1 analyzer (Waltham, Mass.). Plasma colloid osmotic pressure (COP) was determined before and after hemodilution with a Wescor 4400 Colloid Osmometer (Logan, Utah). […] Hematocrit was determined volumetrically. Hemoglobin (gm %), methemoglobin (%) and percent oxygen saturation were measured with an Instrumentation Laboratories 482 CO-Oximeter (Lexington, Mass.). […]
# [4] = Regional blood flows by radioactive microspheres (Example I); assay type: in vivo, mongrel dogs; conditions: vs control and post-SNP infusion
# Method: Regional blood flows (ml/minute/100 g tissue) were measured with the reference isotope technique using 15μ microspheres as described in detail in Crystal et al., supra. Briefly, prior to injection, microspheres labeled with Sc^46, Sr^85, Sn^113 or Ce^141 were vortexed and sonicated. Approximately 30 microcuries (1×10^6 microspheres) were injected into the left atrium of a dog. Beginning with each microsphere injection, duplicate reference blood samples were collected at a constant rate (6 ml min^−1) for 3 minutes from the femoral PE 90 catheters. Radioactivity of the duplicate samples differed by less than 10%, indicating adequate mixing of the microspheres in the left ventricular output. […]
# The tissue and reference samples were weighed and analyzed for radioactivity with a gamma scintillation counter equipped with a multichannel analyzer (Packard Instrument, Downers Grove, Ill.). […] Values for organ blood flows (BForgan) in ml min^−1 were calculated from the equation BForgan=ABF×(MC÷AC)×organ weight (g), where ABF is the rate of arterial reference sampling (ml/minute), MC is the microsphere radioactivity (counts min^−1 g^−1) in the tissue samples, and AC is the total microsphere radioactivity (counts/minute) in the arterial reference samples. […] Skeletal muscle, skin and bone weights were calculated as 40%, 9% and 8% of body weight, respectively.
# cyclic GMP [5] = test: Plasma cyclic GMP and arterial pressure before and after hemodilution and SNP (Example II); assay type: in vivo, dog; conditions: hemodilution alone, n = 5, mean ± sem
# Excerpt: To gain more direct evidence that the molecular mechanism governing the hemodynamic pharmacology of hemoglobin-hemodilution involves inactivation or antagonism of NO, we conducted a study on systemic guanosine 3′:5′-cyclic monophosphate (cyclic GMP) production. Cyclic GMP is the end-product of the L-arginine→NO synthase→NO→guanylate cyclase→cyclic GMP pathway.
# The effects of administering a nitric oxide donor/cyclic GMP generator (Na nitroprusside) on plasma cyclic GMP levels and arterial blood pressure are shown in Table 9 for control (non-hemodiluted), Ab-HD and oxyHb-HD animals.
# nitric oxide synthase = test: L-NAME during Ab-HD pilot study; assay type: in vivo, dog; conditions: Ab-HD alone
# Method: Approximately 6 mg/kg L-NAME was administered i.v. bolus during Ab-HD. Significant increases in MAP and decreases in plasma cGMP were evident (Table 11).
# cyclic GMP [6] = test: Regional interstitial cGMP by microdialysis; assay type: in vivo, dog; conditions: during hemodilution alone, n = 4
# Excerpt: In a small pilot study, we investigated the possibility that oxyHb would cause selective differences in regional cGMP production (Table 10). An in vivo method that is based on direct microdialysis of the organ tissue was used to examine the regional interstitial production of cGMP. The microdialysis technique uses a small dialysis fiber (250 μm diameter) that is inserted into the tissue and perfused to sample extracellular metabolites.
# [7] = anesthetized dogs, hemodilution to hematocrit 50% of baseline
substance,measurement,setting,value
AbHD: Human albumin in normal saline purchased as Albuminar-25; 8 gm % used for hemodilution as inert colloid control [reference compound],C(a-v)O2,[1]; anesthetized dogs,2.7 ml/100 ml
same,CvO2,[1]; anesthetized dogs,6.8 ml/100 ml
same,CaO2,[1]; anesthetized dogs,10.0 ml/100 ml
same,CaO2,"[1]; anesthetized dogs, listed as albumin",10.0±0.2 ml/100 ml
same,DO2,[1]; oxygen delivery = CaO2 x CO,418 mL/min
same,decrease in arterial-mixed venous oxygen content difference,[1]; vs control,47%
same,reduction in arterial oxygen content,[1]; vs control,~50%
same,WBVO2,[1]; whole body oxygen consumption,126 mL/min
same,O2 extr,[1]; whole body oxygen extraction ratio,30%
same,LV Elastance,[2]; [7],5.26 mm Hg ml
same,LV dP/dtmax,[2]; [7],1753 mm Hg/sec
same,LVPP,[2]; [7],150 mm Hg
same,LVSW,[2]; [7],45.3 g m/beat
same,MAP,[2]; [7],122 mm Hg
same,heart rate,[2]; [7],167 beats/min
same,"mean aortic, right atrial and LV end-diastolic (systemic) pressures vs control","[2]; dog, in vivo",not changed
same,systemic vascular hindrance vs control,"[2]; dog, in vivo",did not change
same,"cardiac output, % of control",[2]; hematocrit 50% of control,approximately 177 % of control
same,"systemic vascular resistance, % of control",[2]; hematocrit 50% of control,about 54 % of control
same,COP of colloid solution,[3],39.3±0.9 mm Hg
same,increase in regional blood flows through various organ beds,[4],about 80%
same,MAP,cyclic GMP [5],138 ± 8 mm Hg
same,Plasma cGMP,cyclic GMP [5],23.78 ± 1.14 µg/mL
same,CO,nitric oxide synthase; n = 3,3710 ± 255 mL/min
same,MAP,nitric oxide synthase; n = 3,126 ± 6 mm Hg
same,cGMP,"nitric oxide synthase; plasma, n = 3, mean ± sem",22.04 ± 1.01 µg/mL
same,"Cyclic GMP levels in regional interstitial microdialysate, MU",cyclic GMP [6]; MU,22.24* μg/ml
same,"Cyclic GMP levels in regional interstitial microdialysate, BO",cyclic GMP [6]; bone,18.12* μg/ml
same,"Cyclic GMP levels in regional interstitial microdialysate, BR",cyclic GMP [6]; brain,24.16* μg/ml
same,"Cyclic GMP levels in regional interstitial microdialysate, GI",cyclic GMP [6]; gastrointestinal tract,18.12* μg/ml
same,"Cyclic GMP levels in regional interstitial microdialysate, HE",cyclic GMP [6]; heart,21.56* μg/ml
same,"Cyclic GMP levels in regional interstitial microdialysate, LI",cyclic GMP [6]; liver,14.24* μg/ml
same,"Cyclic GMP levels in regional interstitial microdialysate, LU",cyclic GMP [6]; lung,22.46* μg/ml
same,"Cyclic GMP levels in regional interstitial microdialysate, SP",cyclic GMP [6]; spleen,22.60* μg/ml
